Assay results reported in ChEMBL document CHEMBL4808240, “Design, synthesis and analysis of novel sphingosine kinase-1 inhibitors to improve oral bioavailability” (Bioorg Med Chem Lett, 2021).

By UniProt entry, the sequences of proteins in these tests, tags left out.
UniProt Q9NYA1, whole entry: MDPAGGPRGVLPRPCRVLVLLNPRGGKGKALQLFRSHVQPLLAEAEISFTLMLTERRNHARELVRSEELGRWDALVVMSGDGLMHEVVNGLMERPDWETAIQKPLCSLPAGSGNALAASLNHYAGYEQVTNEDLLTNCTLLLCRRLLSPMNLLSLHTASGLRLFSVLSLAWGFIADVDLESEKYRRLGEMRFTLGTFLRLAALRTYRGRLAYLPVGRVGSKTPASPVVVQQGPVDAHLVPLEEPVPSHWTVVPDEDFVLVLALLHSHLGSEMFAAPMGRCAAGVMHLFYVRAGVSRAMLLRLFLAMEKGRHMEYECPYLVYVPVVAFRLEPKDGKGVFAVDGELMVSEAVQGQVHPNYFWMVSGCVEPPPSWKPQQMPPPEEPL

Biological target: Sphingosine kinase 1 (Homo sapiens, UniProt Q9NYA1)
Assay: Inhibition of recombinant full length GST-tagged human SPHK1 expressed in baculovirus expression system incubated for 1 hr in presence of ATP by Alexa Fluor 647 tracer based Adapta assay relative to control
Settings: concentration not given here

`O=C(N/N=C/c1c(O)ccc2ccccc12)c1cc(-c2ccc3ccccc3c2)n[nH]1` showed an inhibition of 3%.
